Legend:
α2-AR = test: Competition binding against the selective α2-AR radioligand [3H]RX821002 in membranes from post-mortem human frontal cortex
I2-IR = test: Competition binding against the selective I2-IR radioligand [3H]-2-BFI in membranes from post-mortem human frontal cortex

SMILES: CCOP(=O)(OCC)[C@]1(c2ccccc2)N=C[C@H]2C(=O)N(C)C(=O)[C@H]21 (relative stereo)
- [^3H]-RX821002 α2 binding affinity (pKi) (α2-AR): 5.93 ± 0.41
- Selectivity I2/α2 (I2-IR; antilogarithm of the difference between pKi for I2-IR and pKi for α2-AR): 110
- [^3H]-2-BFI I2 binding affinity (pKi) (I2-IR; membranes from post-mortem human frontal cortex, radioligand [3H]-2-BFI): 7.97 ± 0.55
- Permeability (Pe) Experimental value ± SD (n = 3) (PAMPA-BBB, PBS:EtOH (70:30), three experiments in triplicate): 0.75 ± 0.13 10−6 cm s^−1
- CNS Prediction (predictive penetration in the CNS from PAMPA-BBB Pe): CNS− (compounds of low BBB permeation (CNS−): Pe (10^−6 cm s^−1)<2,083)
